Data taken from ChEMBL document CHEMBL5226283, “Reactive Oxygen Species (ROS)-Responsive Prodrugs, Probes, and Theranostic Prodrugs: Applications in the ROS-Related Diseases” (J Med Chem, 2021).

What was measured:
DNA [1] = experiment: Induction of ROS-mediated DNA (unknown origin) assessed as efficiency of ICL formation preincubated with compounds followed by H2O2 addition relative to control; assay type: functional
DNA [2] = experiment: Induction of ROS-mediated DNA (unknown origin) ICL formation by measuring rate constant preincubated with compounds followed by H2O2 addition; assay type: functional

C[N+](CCCl)(CCCl)Cc1ccc(B(O)O)cc1
Activity (DNA [1]): 43% | K (DNA [2]): 4.7 10^-5/s
